Consider two molecules from paper PMC4793151 (Cell host & microbe, 2016).

This assay concerns strain 17875 BabA^AD. Nature of the assay: ITC of strain 17875 BabA^AD titrated with bg glycans. It counts as binding, Helicobacter pylori.

`CC(=O)N[C@H]1[C@H](O[C@H]2[C@@H](O)[C@@H](CO)O[C@@H](O[C@H]3[C@H](O)[C@@H](O)C(O)O[C@@H]3CO)[C@@H]2O)O[C@H](CO)[C@@H](O[C@@H]2O[C@@H](C)[C@@H](O)[C@@H](O)[C@@H]2O)[C@@H]1O[C@@H]1O[C@H](CO)[C@H](O)[C@H](O[C@H]2O[C@H](CO)[C@H](O)[C@H](O)[C@H]2O)[C@H]1O[C@@H]1O[C@@H](C)[C@@H](O)[C@@H](O)[C@@H]1O` (stereo partly drawn) [BLe^b7]: the “fold increase in monovalent affinity compared to Le^b5” value is 2 fold.

For the molecule `CC(=O)N[C@H]1[C@@H](O[C@H]2[C@@H](O)[C@@H](CO)O[C@@H](O[C@H]3[C@H](O)[C@@H](CO)O[C@@H](O[C@H]4[C@@H](O)[C@@H](CO)O[C@@H](O[C@H]5[C@H](O)[C@@H](O)C(O)O[C@@H]5CO)[C@@H]4O)[C@@H]3NC(C)=O)[C@@H]2O[C@@H]2O[C@@H](C)[C@@H](O)[C@@H](O)[C@@H]2O)O[C@H](CO)[C@H](O)[C@@H]1O` (stereo partly drawn) [A6-1, A type 1 hexasaccharide], the “fold lower monovalent affinity compared to BLe^b7” value is given as approximately 3.5 fold and the “fold lower monovalent affinity compared to Le^b5” value was 2 fold.
